# Measured logP (octanol/water) values of organic chemicals

The octanol-water partition coefficient is given as log10; larger values mean a more lipophilic compound.
Cells with "–" have no entry in this list.
"via" names the databases from which the curators took the value.

compound	name	log Kow	via
Cc1ccc(S(=O)(=O)Cl)cc1	p-Toluenesulfonyl chloride	3.49	PubChem
O=C1NC(=O)c2ccc3c4cccc5cccc(c6ccc1c2c63)c54	Perylene-3,4-dicarboximide	4.6	eChemPortal
CCOc1cc(C=O)ccc1O[C@@H]1O[C@H](CO)[C@@H](O)[C@H](O)[C@H]1O	Ethyl vanillin glucoside	-0.76	eChemPortal
CCOCC(C)O (stereo unspecified)	1-Ethoxy-2-propanol	1.23	eChemPortal
CC(=O)c1cc2ccccc2o1	Ethanone, 1-(2-benzofuranyl)-	1.94	eChemPortal
CC(C)CCCCCC(=O)NCCCCCC(=O)O	6-(Isononanoylamino)hexanoic acid	2.47	eChemPortal
CCOc1ccc(N)c([N+](=O)[O-])c1	4-Ethoxy-2-nitroaniline	2.38	OCHEM
Oc1ccc2ccccc2c1C=NN=Cc1c(O)ccc2ccccc12	–	6.269	eChemPortal
CCn1c(O)c(/N=N/c2cc(Nc3nc(Cl)nc(Nc4ccc(S(=O)(=O)[O-])c(Nc5nc(N)nc(Cl)n5)c4)n3)c(S(=O)(=O)[O-])cc2S(=O)(=O)[O-])c(C)c(C(N)=O)c1=O.[Na+].[Na+].[Na+]	–	-2.84	eChemPortal
CC(CO)CCCC1CCCCC1 (stereo unspecified)	Cyclohexanepentanol, .beta.-methyl-	5.3	eChemPortal
Cc1nn(-c2ccccc2)c(=O)[c-]1/N=N/c1cc(Cl)c(S(N)(=O)=O)cc1[O-].Cc1nn(-c2ccccc2)c(=O)[c-]1/N=N/c1cc(Cl)c(S(N)(=O)=O)cc1[O-].[Cr+3].[Na+]	–	1.33	eChemPortal
COc1cc(C(=O)Nc2ccc3nn(C4CCCCC4)nc3c2)cc(OC)c1OC	–	4.45	OCHEM
COC(=O)N1c2ccccc2C=C(OC)c2ccccc21	Methyl 10-methoxy-5H-dibenz[b,f]azepine-5-carboxylate	2.8	eChemPortal
CC(=O)Oc1cc(C)c(OC(C)=O)c2ccccc12	Acetomenaphthone	3.59	OCHEM
C=CC(=O)NC(C)(C)CS(=O)(=O)O	2-Acrylamido-2-methyl-1-propanesulfonic acid	-3.7	eChemPortal
CCN(C(=O)c1ccccc1)c1ccc(/N=N/c2cc(S(=O)(=O)[O-])c3ccccc3c2O)c(C)c1.[Na+]	C.I. Acid Red 6, monosodium salt	-0.53	eChemPortal
NC(=O)CN(CC(=O)O)CC(=O)O	Glycine, N-(2-amino-2-oxoethyl)-N-(carboxymethyl)-	-3.12	eChemPortal
CC(=O)Nc1c(I)c(NC(C)=O)c(I)c(C(=O)O)c1I	Diatrizoic acid	3.3	PubChem
CCc1ccc(-c2ccc(B(O)O)c(F)c2)cc1	(4'-Ethyl-3-fluoro[1,1'-biphenyl]-4-yl)boronic acid	4.3	eChemPortal
N#CCC(=O)c1ccccc1Cl	2-Chlorobenzoylacetonitrile	0.8	eChemPortal
Cn1c(-c2ccccc2)c(/C=C/C2=[N+](C)c3ccccc3C2(C)C)c2ccccc21.[Cl-]	–	1.1	eChemPortal
CCCC(C)C=O (stereo unspecified)	2-Methylpentanal	1.8	eChemPortal
Cl.N=C(N)c1ccccc1	Benzenecarboximidamide, monohydrochloride	0.65	OCHEM
CCC(=O)OCC(=O)OC(C)C1CCCC(C)(C)C1 (stereo unspecified)	–	4.46	eChemPortal
CCCCCCCCCCCCCN	Tridecylamine	5.1	OCHEM
CCC1(C/C=C2\CCCc3cc(OC)ccc32)C(=O)CCC1=O	–	3.88	eChemPortal
O=C(O)c1cc(Nc2ccccc2)c(C(=O)O)cc1Nc1ccccc1	2,5-Dianilinoterephthalic acid	2.02	eChemPortal
COc1cc(OC)nc(NC(=O)NS(=O)(=O)Nc2ccccc2C(=O)N(C)C)n1	Orthosulfamuron	1.665	eChemPortal
C[C@H](CCC(=O)O)[C@H]1CC[C@H]2[C@@H]3[C@H](O)C[C@@H]4C[C@H](O)CC[C@]4(C)[C@H]3CC(=O)[C@]12C	12-Ketochenodeoxycholic acid	2.97	eChemPortal
CCn1cc[n+](C)c1.O=S(=O)([O-])C(F)(F)F	1-Ethyl-3-methylimidazolium trifluoromethanesulfonate	-2.3	eChemPortal
OCCC1CCCCN1 (stereo unspecified)	2-Piperidineethanol	0.263	eChemPortal
CCOc1ccccc1NC(=O)C(=O)Nc1ccccc1CC	N-(2-Ethoxyphenyl)-N'-(2-ethylphenyl)oxamide	4.75	eChemPortal
C=C(C)C(=O)OCCOCCOCCOCC	Ethyltriglycol methacrylate	2.08	eChemPortal
C[C@@H]1O[C@@]2(CS1)CN1CCC2CC1	Cevimeline	1.3	PubChem
Cc1cc(=O)n2ccccc2n1	2-Methyl-4H-pyrido[1,2-a]pyrimidin-4-one	0.57	OCHEM
C=C(C)C(=O)OCCOC	2-Methoxyethyl methacrylate	1.551	eChemPortal
CC(C)(c1ccccc1)c1ccc(OS(=O)(=O)c2cc([N+]#N)c([O-])c3ccccc23)cc1	–	5.2	eChemPortal
CC1(C)COC(=O)C2CC=CCC2C(=O)OC1 (stereo unspecified)	–	1.14	eChemPortal
FC(F)(F)C(F)(F)C(F)(F)C(F)(F)C(F)(F)C(F)(F)F	Perfluorohexane	4.5	eChemPortal
CCCCCCCCC(O)CO (stereo unspecified)	1,2-Decanediol	1.99	eChemPortal
O=C(c1ccc(OCCN2CCCCC2)cc1)c1c(-c2ccc(O)cc2)sc2cc(O)ccc12	Raloxifene	5.2	PubChem

Extract of 7 entries:

compound	name	log Kow	via
CCN(C(=O)c1ccccc1)c1ccc(/N=N/c2cc(S(=O)(=O)[O-])c3ccccc3c2O)c(C)c1.[Na+]	C.I. Acid Red 6, monosodium salt	-0.53	eChemPortal
COc1cc(OC)nc(NC(=O)NS(=O)(=O)Nc2ccccc2C(=O)N(C)C)n1	Orthosulfamuron	1.665	eChemPortal
C=C(C)C(=O)OCCOCCOCCOCC	Ethyltriglycol methacrylate	2.08	eChemPortal
O=C(O)c1cc(Nc2ccccc2)c(C(=O)O)cc1Nc1ccccc1	2,5-Dianilinoterephthalic acid	2.02	eChemPortal
Oc1ccc2ccccc2c1C=NN=Cc1c(O)ccc2ccccc12	–	6.269	eChemPortal
Cc1cc(=O)n2ccccc2n1	2-Methyl-4H-pyrido[1,2-a]pyrimidin-4-one	0.57	OCHEM
CCCCCCCCC(O)CO (stereo unspecified)	1,2-Decanediol	1.99	eChemPortal

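The OPERA project collected these measurements from public sources as training and test data for property models. The files give a single number for a compound and property, which may rest on several reports. Method and conditions are not stated for these values. Where a salt, mixture or single isomer is drawn, the source does not say that exactly this form was tested. Some upstream entries may be estimates or bounds without being marked so.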

Values as listed in the OPERA 2.9 repository of K. Mansouri.